From ChEMBL document CHEMBL1142276, “Synthesis, cannabinoid receptor affinity, and molecular modeling studies of substituted 1-aryl-5-(1H-pyrrol-1-yl)-1H-pyrazole-3-carboxamides” (J Med Chem, 2008)

Sequences of proteins named here, by UniProt entry; tags and fusion partners are left off.
UniProt P21554, whole entry: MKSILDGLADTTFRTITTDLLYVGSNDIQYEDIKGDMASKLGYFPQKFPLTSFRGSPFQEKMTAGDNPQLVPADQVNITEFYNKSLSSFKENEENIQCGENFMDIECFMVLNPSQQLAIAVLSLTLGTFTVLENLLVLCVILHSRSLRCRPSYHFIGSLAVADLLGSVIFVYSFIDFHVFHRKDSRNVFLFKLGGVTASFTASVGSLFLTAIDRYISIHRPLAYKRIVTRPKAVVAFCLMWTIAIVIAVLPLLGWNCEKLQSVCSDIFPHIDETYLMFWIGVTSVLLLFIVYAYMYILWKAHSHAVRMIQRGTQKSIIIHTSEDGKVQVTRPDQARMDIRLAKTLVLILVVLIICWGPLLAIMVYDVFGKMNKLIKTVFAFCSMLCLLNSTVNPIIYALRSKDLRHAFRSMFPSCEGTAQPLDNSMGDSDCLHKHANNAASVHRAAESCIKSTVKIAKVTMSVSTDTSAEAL

Biological target: Cannabinoid receptor 1 (Homo sapiens, UniProt P21554)
Test: biochemical
Type: cell-based, HEK293

Cc1ccc(Cn2nc(C(=O)N[C@@H]3C(C)(C)[C@@H]4CC[C@@]3(C)C4)cc2-c2ccc(Cl)c(C)c2)cc1 [SR-144528]
Ki: > 2820 nM
